From US20250027930A1, “SMALL MOLECULES FOR REPROGRAMING ANTI-TUMOR IMMUNITY OF T CELLS” (THE SCRIPPS RESEARCH INSTITUTE, priority 2021, published 2025)

How the values were obtained:
[1] = test system: Nalm6-GD2 expressing luciferase leukaemia; assay: In vivo leukaemia progression after CAR-T cell injection; conditions: CAR-T cells expanded with i9 (3 uM) or i12 (1 uM); vs vehicle
[2] = test system: Nalm6-GD2 expressing luciferase; assay: In vitro activity of expanded CAR-T cells against target cell; conditions: CAR-T cells treated with i9 (3 uM) or i12 (1 uM); vs vehicle treated CAR-T cells
[3] = test system: B16-OVA tumors

Compound	in vivo tumor control [1]	survival of tumor bearing mice [1]	anti-tumor activity against the target cell [2]	mice still alive ([3]; by day 30, OT-I (expanded with Taz), no control mice survived up to day 24) [%]	median tumor size relative to that treated with OT-I (expanded without Taz) ([3]; treatment day 20)
C=CC(=O)N1CCN(C(=O)CNc2cc(I)c(Cl)cc2O)CC1 [K-Ras(G12C) inhibitor 12]	better in vivo tumor control	prolonged survival	higher anti-tumor activity		
CCN(c1cc(-c2ccc(CN3CCOCC3)cc2)cc(C(=O)NCc2c(C)cc(C)[nH]c2=O)c1C)C1CCOCC1 [Taz, Tazemetostat]				> 80	1/8
K-Ras(G12C) Inhibitor 9	better in vivo tumor control	prolonged survival	higher anti-tumor activity		
